# In PubChem BioAssay AID2166 (The Scripps Research Institute Molecular Screening Center, 2009):
# The chains behind the UniProt entries cited, without tags or fusion partners.
# UniProt Q07817, whole entry, looked up: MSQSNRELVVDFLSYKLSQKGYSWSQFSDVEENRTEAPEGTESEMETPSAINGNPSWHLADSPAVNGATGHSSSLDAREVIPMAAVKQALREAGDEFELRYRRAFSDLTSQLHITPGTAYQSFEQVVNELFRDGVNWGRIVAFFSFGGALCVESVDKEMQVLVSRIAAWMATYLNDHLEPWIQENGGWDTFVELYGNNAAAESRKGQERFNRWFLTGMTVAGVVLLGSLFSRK
# The list shows a part of the results, in another mix than the full data. Active and inactive are the calls of the source.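 Rule for the calls: active = inhibition above a cutoff equal to the mean inhibition of all tested compounds plus 3 SD (cut at about 30% in these data); inactive = the rest.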
# Biological target: Bcl-2-like protein 1 (Homo sapiens) (UniProt Q07817)
# Assay: Bcl-xL BH3-peptide displacement, hit confirmation – biochemical, fluorescence polarization, counter-screen for MCL1 inhibitor project (AID 2166)
# Conditions: GST-Bcl-xL / FITC-Bim BH3 peptide FP binding; at 10.9 µM; stronger effect = higher value
row,SMILES,inhibition
1,C[N+]1=C2C=CC=CC=C2SC12C([N+](=O)[O-])=CC([N+](=O)[O-])=C[C-]2[N+](=O)[O-] (stereo not given),inactive: 22.5%
2,CN(C(=O)Cc1ccc(Cl)c(Cl)c1)[C@H]1CCCC[C@@H]1N1CCCC1,inactive: 30.1%
3,O=C(OC1CN2CCC1CC2)c1ccc(Cl)cc1 (stereo not given),inactive: 0.75%
4,Nc1cccc2c([As](=O)(O)O)cccc12,active: 53.6%
5,CS(=O)(=O)c1cc([N+](=O)[O-])c2no[n+]([O-])c2c1,active: 40.9%
